According to article PMC6271975, “Structure-Activity Relationship Study of Sesquiterpene Lactones and Their Semi-Synthetic Amino Derivatives as Potential Antitrypanosomal Products” (Molecules, 2014):
Structures can show the parent of a compound that is named as a salt.

System: T. b. rhodesiense STIB 900 bloodstream forms
Assay: In vitro antitrypanosomal Alamar Blue assay
Type: cell-based, Trypanosoma brucei rhodesiense
Method: Evaluation of in vitro antiprotozoal activity against T. b. rhodesiense was done using the Alamar Blue assay to determine IC50s as previously described. Serial threefold dilution were prepared in 96-well micro titre plates, and 4000 T. b. rhodesiense STIB 900 bloodstream forms in 50 μL were added to each well except for the negative controls. Melarsoprol (Arsobal®, purity > 95%, Sanofi-Aventis, Meyrin, Switzerland) was used as reference drugs. […] The IC50 values were calculated from the sigmoidal growth inhibition curves using Softmax Pro software (Molecular Devices).

In the case of C=C(CO)C(=O)OC1CC(=C)C2CC(O)C(=C)C2C2OC(=O)C(CN(C)C)C12 (stereo not shown) [Compound 19, Cynaropicrin dimethylamine adduct hydrochloride], the “SI (Selectivity Index)” value is reported as 10.4.
